Experimental data: ChEMBL document CHEMBL4038319, “Development of a Potent Inhibitor of the Plasmodium Proteasome with Reduced Mammalian Toxicity” (J Med Chem, 2017)

System: Plasmodium falciparum
Assay: Ratio of kinact to Ki for schizont stage Plasmodium falciparum 20S proteasome beta5 subunit

| Compound | Ratio |
| --- | --- |
| CCCCCC(=O)N[C@@H](C(=O)N[C@@H](CCCC)C(=O)N[C@@H](CC(C)C)C(=O)[C@@]1(C)CO1)C(C)C | 158 M⁻¹ s⁻¹ |
| CCCCCC(=O)N[C@H](C(=O)N[C@@H](CCCC)C(=O)N[C@@H](CC(C)C)C(=O)[C@@]1(C)CO1)C(C)C | 768 M⁻¹ s⁻¹ |
